Earlier results in patent US10428067B2, “Compounds and methods for kinase modulation” (Plexxikon Inc., priority 2017, dated 2019).

System: FLT3-ITD+ AML patients
Conditions: relapsed or chemotherapy-refractory FLT3-ITD+ AML patients, phase II monotherapy (Tallman et al.); cited from earlier work

SMILES: CC(C)(C)c1cc(NC(=O)Nc2ccc(-c3cn4c(n3)sc3cc(OCCN5CCOCC5)ccc34)cc2)no1 [quizartinib]
- composite complete remission (CRc) rate: about 50%
